Binding of CDR-mutated scFvs to a peptide of the spike HR2 region

Target peptide (SARS-CoV-2 spike, HR2 region): PDVDLGDISGINAS

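Designed CDR sequences, proposed from the first random library and measured here. Their group label is 14H_En_HC (En: ensemble of fine-tuned language models; HC: hill climbing; a sequence that several methods proposed may carry one label only). AlphaSeq pools MATa yeast showing the antibodies with MATalpha yeast showing the peptide. Pairs that bind mate more often; barcode pairs of the diploids are counted by sequencing. The ratio of observed to expected reads was calibrated, replicate by replicate, on BCL2-family standards whose Kd was known from biolayer interferometry. There are six technical replicates.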

Parent scFv Ab-14: VH joined to VL by the linker GGGGSGGGGSGGGGS. Changes lie in the heavy chain CDRs alone.
VH: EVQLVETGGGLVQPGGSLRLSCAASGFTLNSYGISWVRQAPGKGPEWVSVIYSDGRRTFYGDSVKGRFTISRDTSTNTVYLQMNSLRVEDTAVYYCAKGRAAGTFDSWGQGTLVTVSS
VL: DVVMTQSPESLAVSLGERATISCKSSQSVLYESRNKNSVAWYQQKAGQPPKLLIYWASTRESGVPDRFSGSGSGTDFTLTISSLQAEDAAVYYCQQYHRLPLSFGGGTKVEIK

Variants are written as CDR1, CDR2 and CDR3 of the heavy chain (limits as in the source). Parent: GFTLNSYGIS, VIYSDGRRTFYGDSVK, GRAAGTFDS. Affinities are written as log10 Kd with Kd in nM; a lower number is a better binder. A mean of the replicates is given; it leaves out those without a signal. A pair that was not seen in that replicate is written "ND"; this usually means weak binding, but a binder can also be missed. Three control strains display no target. For all heavy chain designs, 1% of the pairings with them gave a signal, with a median of 2.08 and one signal in twenty below 0.84, so weak values seen in few replicates may be background. The control count says in how many pairings with the empty strains this scFv gave a signal, with their mean in brackets. In the paper, a design with two or fewer of six values counts as a poor binder. A sequence measured in both rounds can read differently, since the two assays cover different ranges.

| CDR-H1 | CDR-H2 | CDR-H3 | log10 Kd, replicates | mean, log10 nM | control signals |
|---|---|---|---|---|---|
| GFDLNEYGIS | VIYADGRRTFYIDSVK | GNIAGTFDV | -0.08 -0.92 -0.44 -0.71 -0.35 0.11 | -0.40 | 0/18 |
| GFDLDEYGIS | VIYADGRRTFYSDSVK | GSTAGTFDV | -0.50 -0.30 -0.62 -0.93 -0.72 -0.41 | -0.58 | 1/18 (3.42) |
| GFDLNEYGIS | VIYADGKRTFYADSVK | GNQAGTFDQ | -0.32 -0.10 -0.21 -0.55 -0.81 -0.52 | -0.42 | 0/18 |
| GFDLNEYGIS | VIYADGRRTVYADSVK | GNNAGTFIS | ND 2.83 1.55 1.74 2.72 3.40 | 2.45 | 0/18 |
| GFDLNEYGIS | VIYADGRRTFYTDSVK | GEEAGTFDQ | -0.26 -0.12 -0.08 0.10 0.27 -0.01 | -0.02 | 0/18 |
| GFDLNEYGIS | VIYADGRRTAYSDSVK | GENAGTFDS | -0.42 -0.89 -0.51 -1.24 -0.44 -0.83 | -0.72 | 0/18 |
| GFDLNEYGIS | VIYADGSRTFYADSVK | GEAAGSFDL | 0.49 1.36 0.52 0.00 1.43 -0.10 | 0.62 | 0/18 |
| GFDLNEYGIS | VIYADGIRTFYADSVK | GNHAGTFDV | -0.26 -0.58 -0.38 -0.65 -0.17 -0.09 | -0.36 | 0/18 |
| GFNLNEYGIS | VIYADGRRTFYSNSVK | GENAGTFDV | -0.05 -0.50 -0.53 -0.52 -0.62 -0.23 | -0.41 | 0/18 |
| GFDLNEYGIS | VIYADGSRKFYADSVK | GNTAGTFDV | -0.03 0.25 -0.01 0.29 0.03 0.06 | 0.10 | 1/18 (3.73) |
| GFDLNEYGIS | VIYADGRRTFYADSVK | GNNAGTFDE | -0.23 -0.36 -0.58 -0.19 -0.51 -0.45 | -0.39 | 0/18 |
| GFDLNEYGIS | VIYADGKRTFYADSVK | GQAAGTFDI | 0.11 -0.34 -0.11 -0.33 -0.02 0.29 | -0.07 | 1/18 (3.30) |
| GFDLNEYGIS | VIYADGRRTSYVDSVK | GVNAGTFDS | 0.15 1.64 0.35 0.67 0.35 0.69 | 0.64 | 0/18 |
| GFSLDEYGIS | VIYADGRRTFYADSVK | GNNAGTFDS | -0.29 -0.32 -0.43 -0.47 -0.34 -0.44 | -0.38 | 0/18 |
| GFDLNEYGIS | VIYADGRRTFYTDSVK | GEHAGIFDV | ND 0.12 0.49 0.51 -0.45 -0.01 | 0.13 | 0/18 |
| GFDLNEYGIS | VIYADGRRTAYIDSVK | GEIAGTFDN | -0.46 -0.49 -0.50 -0.45 -0.34 -0.40 | -0.44 | 0/18 |
| GFDLNEYGIS | VIYADGRRTAYADSVK | GQVAGTFDF | -0.20 -0.17 0.02 -0.49 -0.55 -0.44 | -0.31 | 0/18 |
| GFDLNEYGIS | VIYADGMRTQYIDSVK | GEVAGTFDL | ND 0.08 -0.01 1.08 0.99 1.34 | 0.70 | 0/18 |
| GFDLNEYGIS | VIYADGRRTFYADSVK | GNTAGTFDA | -0.73 -0.73 -0.69 -0.66 -0.83 -0.63 | -0.71 | 0/18 |
| GFNLDEYGIS | VIYADGRRTFYSDNVK | GEAAGTFDI | -0.04 -0.58 -0.17 -0.80 -0.61 -0.29 | -0.42 | 0/18 |
| GFDLNEYGIS | VIYADGSRTFYSDSVK | GQTAGTFDL | 0.50 -0.90 -0.58 -0.84 -0.58 -0.76 | -0.52 | 0/18 |
| GFDLDEYGIS | VIYADGRRTFYADSVK | GEAAGTFDE | 0.55 -0.05 0.18 -0.05 0.21 0.21 | 0.18 | 0/18 |
| GFDLEDYGIS | VIYADGRRTAYIDSVK | GEAAGTFDS | 0.02 -0.26 -0.20 -0.47 -0.25 -0.14 | -0.22 | 1/18 (2.77) |
| GFDLNEYGIS | VIYADGMRTAYTDSVK | GNNAGTFDS | -0.91 -0.73 -0.54 -0.73 -1.03 -0.65 | -0.76 | 0/18 |
| GFDLNEYGIS | VIYADGRRTYYVDSVK | GENAGTFDV | -0.65 -1.46 -1.19 -1.30 -1.24 -0.91 | -1.13 | 0/18 |
| GFDLNEYGIS | VIYADGKRTFYSDSVK | GNAGGTFDM | 0.05 -1.13 0.16 0.30 -0.58 0.13 | -0.18 | 0/18 |
| GFDLNEYGIS | VIYADGRRTFYQDSVK | GNVAGTFDL | 0.22 -0.07 -0.18 -0.23 -0.27 0.02 | -0.09 | 1/18 (2.95) |
| GFDLDEYGIS | VIYADGRRTFYADSVK | GEAAGTFDK | -0.25 -0.10 -0.25 -0.40 -0.25 0.46 | -0.13 | 0/18 |
| GFDLNEYGIS | VIYADGRRTFYADSVK | GQVAGTFDV | -0.60 -0.83 -0.95 -1.33 -0.77 -0.08 | -0.76 | 0/18 |
| GFDLDEYGIS | VIYADGQRTAYADSVK | GSNAGTFDM | 0.14 0.57 0.07 0.12 0.27 0.71 | 0.31 | 0/18 |
| GFDLNEYGIS | VIYADGRRTFYADSVK | GNTAGTFDM | -0.53 -0.38 -0.58 -0.53 -0.51 -0.24 | -0.46 | 1/18 (1.04) |
| GFDLNEYGIS | VIYADGRRTFYADSVK | GNNAGTFDM | -0.31 -0.46 -0.14 -0.49 -0.43 -0.17 | -0.33 | 0/18 |
| GFDLNEYGIS | VIYADGRRTAYTDSVK | GTFAGTFDV | -0.46 -0.47 -0.51 -0.69 -0.93 -0.51 | -0.59 | 1/18 (0.80) |
| GFDLNEYGIS | VIYADGVRTAYVDSVK | GETAGTFDS | -0.95 -1.00 -0.13 0.18 -0.67 -0.09 | -0.44 | 0/18 |
| GFDLNEYGIS | VIYADGQRTFYADSVK | GKNAGTFDQ | 0.05 0.16 -0.30 -0.34 -0.05 0.06 | -0.07 | 0/18 |
| GFDLNEYGIS | VIYADGRRTFYADSVK | GTAAGTFDL | -0.45 -0.28 -0.85 -0.53 0.17 -0.02 | -0.33 | 0/18 |
| GFDLNEYGIS | VIYADGRRTFYSDSVK | GNAGGTFDI | ND 1.35 ND ND 0.40 ND | 0.87 | 0/18 |
| GFDLNEYGIS | VIYADGQRTFYADSVK | GNQAGTFDL | -0.71 -0.33 -0.47 -0.96 -0.62 -0.50 | -0.60 | 1/18 (1.00) |
| GFDLNEYGIS | VIYADGRRTFYADSVK | GEVGGTFDS | -0.01 0.09 0.44 0.16 0.05 0.03 | 0.13 | 0/18 |
| GFDLNEYGIS | VIYADGRRTFYKDSVK | GNLAGTFDQ | 0.04 -0.20 -0.51 -0.53 -0.31 -0.38 | -0.32 | 1/18 (0.60) |
| GFDLNEYGIS | VIYADGMRTFYADSVK | GEAGGTFDV | 0.19 0.46 0.22 0.04 0.86 -0.05 | 0.28 | 0/18 |
| GFTLDEYGIS | VIYADGRRTFYADSVK | GELAGTFDI | -0.44 -0.67 -0.48 -1.26 -0.75 -1.15 | -0.79 | 0/18 |
| GFDLESYGIS | VIYADGSRTAYADSVK | GNVAGTFDL | -0.49 -1.00 -0.76 -0.93 -0.37 -0.45 | -0.67 | 0/18 |
| GFDLNEYGIS | VIYADGRRTAYIDDVK | GEAAGTFDI | -0.30 -0.36 0.01 -0.27 -0.47 -0.52 | -0.32 | 0/18 |
| GFDLNEYGIS | VIYADGRRTAYIDSVK | GEAAGTFDQ | 1.84 0.94 1.32 1.42 1.09 1.35 | 1.33 | 1/18 (1.49) |
| GFDLEDYGIS | VIYADGRRTFYADSVK | GEIAGTFDT | -0.29 -0.43 -0.36 -0.52 -0.49 -0.28 | -0.40 | 0/18 |
| GFDLEDYGIS | VIYADGRRTFYSDSVK | GEIAGTFDS | 0.00 0.47 -0.61 -0.89 0.13 -0.42 | -0.22 | 0/18 |
| GFNLNEYGIS | VIYADGRRTFYADSVK | GGHAGTFDV | -0.58 -0.66 -0.62 -0.85 -0.77 -0.55 | -0.67 | 0/18 |
| GFDLNEYGIS | VIYADGRRTFYADSVK | GNNAGTFIF | ND ND ND ND ND 2.07 | 2.07 | 0/18 |
| GFDLNEYGIS | VIYADGRRTAYIDSVK | GNQAGTFDM | -0.23 -1.03 -0.07 -0.64 -0.36 -0.91 | -0.54 | 0/18 |
| GFDLNEYGIS | VIYADGRRTAYIDSVK | GHLAGTFDV | -0.05 -0.58 -0.35 -0.27 -0.40 0.03 | -0.27 | 0/18 |

Excerpt, the final 8 entries:

{"CDR-H1": "GFDLNEYGIS", "CDR-H2": "VIYADGRRTAYIDDVK", "CDR-H3": "GEAAGTFDI", "log10 Kd, replicates": "-0.30 -0.36 0.01 -0.27 -0.47 -0.52", "mean, log10 nM": "-0.32", "control signals": "0/18"}
{"CDR-H1": "GFDLNEYGIS", "CDR-H2": "VIYADGRRTAYIDSVK", "CDR-H3": "GEAAGTFDQ", "log10 Kd, replicates": "1.84 0.94 1.32 1.42 1.09 1.35", "mean, log10 nM": "1.33", "control signals": "1/18 (1.49)"}
{"CDR-H1": "GFDLEDYGIS", "CDR-H2": "VIYADGRRTFYADSVK", "CDR-H3": "GEIAGTFDT", "log10 Kd, replicates": "-0.29 -0.43 -0.36 -0.52 -0.49 -0.28", "mean, log10 nM": "-0.40", "control signals": "0/18"}
{"CDR-H1": "GFDLEDYGIS", "CDR-H2": "VIYADGRRTFYSDSVK", "CDR-H3": "GEIAGTFDS", "log10 Kd, replicates": "0.00 0.47 -0.61 -0.89 0.13 -0.42", "mean, log10 nM": "-0.22", "control signals": "0/18"}
{"CDR-H1": "GFNLNEYGIS", "CDR-H2": "VIYADGRRTFYADSVK", "CDR-H3": "GGHAGTFDV", "log10 Kd, replicates": "-0.58 -0.66 -0.62 -0.85 -0.77 -0.55", "mean, log10 nM": "-0.67", "control signals": "0/18"}
{"CDR-H1": "GFDLNEYGIS", "CDR-H2": "VIYADGRRTFYADSVK", "CDR-H3": "GNNAGTFIF", "log10 Kd, replicates": "ND ND ND ND ND 2.07", "mean, log10 nM": "2.07", "control signals": "0/18"}
{"CDR-H1": "GFDLNEYGIS", "CDR-H2": "VIYADGRRTAYIDSVK", "CDR-H3": "GNQAGTFDM", "log10 Kd, replicates": "-0.23 -1.03 -0.07 -0.64 -0.36 -0.91", "mean, log10 nM": "-0.54", "control signals": "0/18"}
{"CDR-H1": "GFDLNEYGIS", "CDR-H2": "VIYADGRRTAYIDSVK", "CDR-H3": "GHLAGTFDV", "log10 Kd, replicates": "-0.05 -0.58 -0.35 -0.27 -0.40 0.03", "mean, log10 nM": "-0.27", "control signals": "0/18"}

The measurements come from Li et al. 2023 (doi:10.1038/s41467-023-39022-2) through the FLAb antibody collection.